The record followed here is patent US20100322919A1.

The target of assay [1] is cancer-associated variant of IkBβ2 (Homo sapiens (Human)) (UniProt Q15653). The assay can be described thus: flow cytometry on A-549 lung tumor cells, VB1-204 at 100 µg/mL.
Assay [2] shares this target. In words: flow cytometry on Hep-G2 liver tumor cells, VB1-204 at 100 µg/mL.
Assay [3] shares this target. The assay can be described thus: flow cytometry on MB-231 breast tumor cells, VB1-204 at 100 µg/mL.
Assay [4] shares this target. The assay can be described thus: flow cytometry on SK-OV-3 ovary tumor cells, VB1-204 at 100 µg/mL.
Assay [5] shares this target. The assay can be described thus: flow cytometry on MB-435S breast tumor cells, VB1-204 at 100 µg/mL.
Assay [6] has the same target. The assay can be described thus: flow cytometry on SK-BR-3 breast tumor cells, VB1-204 at 100 µg/mL.
Assay [7] shares this target. The assay can be described thus: flow cytometry on DU-145 prostate tumor cells, VB1-204 at 100 µg/mL.
For assay [8] the target is unchanged. The assay can be described thus: flow cytometry on Panc-1 pancreas tumor cells, VB1-204 at 100 µg/mL.
Assay [9] shares this target. The assay can be described thus: flow cytometry on CFPac-1 pancreas tumor cells, VB1-204 at 100 µg/mL.
The target is the same in assay [10]. In words: two color flow cytometry on C33A cervix cells, VB1-204 at 25 µg/mL, 2 hours at 4° C.
The target is the same in assay [11]. In words: flow cytometry saturation curve on A-375 tumor cells, 2 hours, Lineweaver-Burk method.
The target is the same in assay [12]. The assay can be described thus: two color flow cytometry on DU-145 prostate cells, VB1-204 at 25 µg/mL, 2 hours at 4° C.

For the substance VB1-204 monoclonal antibody, the MF (mean-fold increase in median fluorescence over the control antibody) came to 16.3 fold in assay [1]; 29.4 fold in assay [2]; 54.2 fold in assay [3]; 13.3 fold in [4]; 16.7 fold in assay [5]; 22.1 fold in [6]. Moreover, the figures for the MF (mean-fold increase in median fluorescence over the control antibody) in assay [7], in [8] and in [9] were 22.9 fold, 12.8 fold and 57.7 fold, respectively. Further, the results for the percent of cells bound in assay [10] and in [12] were 92.5% and 96.8%, respectively. Moreover, in assay [11], the Kd was determined as 5 nM.
